Results from patent US20040127511A1 (Pharmacia Corporation, priority 2002, published 2004).

By UniProt entry, the sequences of proteins in these tests, tags left out.
UniProt P49137, whole entry, species assumed: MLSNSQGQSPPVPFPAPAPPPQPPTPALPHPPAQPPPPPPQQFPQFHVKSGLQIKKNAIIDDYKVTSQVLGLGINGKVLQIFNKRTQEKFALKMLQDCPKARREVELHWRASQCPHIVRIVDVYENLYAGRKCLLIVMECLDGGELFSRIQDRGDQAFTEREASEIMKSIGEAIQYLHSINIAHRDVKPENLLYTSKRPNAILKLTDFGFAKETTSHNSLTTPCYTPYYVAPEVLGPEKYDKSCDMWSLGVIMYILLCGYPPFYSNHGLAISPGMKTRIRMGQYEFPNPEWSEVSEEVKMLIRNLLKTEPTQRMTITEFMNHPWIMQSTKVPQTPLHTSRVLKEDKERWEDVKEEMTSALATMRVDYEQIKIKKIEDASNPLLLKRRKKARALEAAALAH

Target: MAPKAPK2 (Homo sapiens, UniProt P49137)
Type: biochemical
Settings: HSP-peptide substrate, 0.03 mM ATP, 2% DMSO; read-out: MK-2 Avg. IC50

N#Cc1c(N)nc2c(c1N)Cc1ccccc1S2 [No. 83, 2-amino-4-(butylamino)-7,8-dimethoxy-5H-chromeno[2,3-b]pyridine-3-carbonitrile]
IC50: ≥ 200 µM
